The values that follow come from PubChem BioAssay AID1947 (The Scripps Research Institute Molecular Screening Center, 2009).

The structures appear in SMILES notation. This is a selection; strong and weak results do not stand in their true shares. Some salts or complexes appear as unconnected parts, following the source record. Activity calls are given as the source filed them.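 Rule for the calls: active = inhibition above the screen mean inhibition plus 3 SD, computed separately per campaign (cut at about 18% in these data); inactive = the rest.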

The assay concerns Fam108B (ABHD17B) serine hydrolase [Mus musculus]. Kind of assay: inhibition of Fam108B (ABHD17B) hydrolase – biochemical, fluorescence polarization, counter-screen for RBBP9 inhibitor project, primary screen (AID 1947).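 Note: inhibitors lower polarization as less probe binds the enzyme.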 The settings on record: recombinant Fam108B, FP-Rh probe fluorescence polarization; at 9.51 µM; stronger effect = higher value. On the technique in general: In fluorescence polarisation assays a small probe gives low polarisation when free and higher when bound to something large.
A word on the inhibition: it is the change of the read-out against control, counted positive when it falls. Consider `CC1=NCCc2c1[nH]c1ccccc21.O=[N+]([O-])c1cc([N+](=O)[O-])c(O)c([N+](=O)[O-])c1`, for which the inhibition was inactive: 1.31%. For `O=C(O)c1cccc(Nc2c([N+](=O)[O-])cc([N+](=O)[O-])cc2[N+](=O)[O-])c1`, the inhibition is inactive: 3.74%.

For the compound `Cc1ccc(C)c(NP(C)(=O)Oc2ccccc2)c1` (stereo not drawn), the inhibition is inactive: -1.52%. The same measure for `Cc1cc(C)cc(OP(C)(=O)Nc2ccccn2)c1` (stereo not drawn): inactive: -2.04%; for `CP(=O)(Nc1cccc(Br)c1)Oc1ccccc1` (stereo not drawn): inactive: -1.15%; for `COc1ccccc1OP(C)(=O)Nc1cccc(Br)c1` (stereo not drawn): inactive: -1.16%. The same measure for `CCOC(=O)c1ccc(NP(C)(=O)Oc2cc(C)cc(C)c2)cc1` (stereo not drawn): inactive: 3.57%; for `Cc1cc(C)cc(OP(C)(=O)Nc2ccc(C)cc2C)c1` (stereo not drawn): inactive: -1.78%; for `O=[N+]([O-])c1cc([N+](=O)[O-])c(-c2cnn(-c3ccccc3)c2)c([N+](=O)[O-])c1`: inactive: 0.77%.

For the compound `Cc1nc2ccc3ccccc3c2s1.O=[N+]([O-])c1cc([N+](=O)[O-])c(O)c([N+](=O)[O-])c1`, the inhibition was inactive: 2.8%.

With `O=[N+]([O-])c1cc([N+](=O)[O-])c(-n2nnc3ccccc32)c([N+](=O)[O-])c1`, the inhibition is inactive: 0.32%. The same measure for `COc1ccccc1OP(C)(=O)Nc1c(C)cccc1C` (stereo not drawn): inactive: -0.26%. The same measure for `CN1CCCCC1COC(=O)C1(O)c2ccccc2CCc2ccccc21` (stereo not drawn): inactive: -0.01%. Turning to `CCCOc1ccc(NP(C)(=O)Oc2ccc(Cl)cc2)cc1` (stereo not drawn), the inhibition was inactive: 4.64%.

As to `CP(=O)(Nc1ccc(SC(F)(F)F)cc1)Oc1ccccc1` (stereo not drawn), the inhibition was inactive: 4.13%. The same measure for `CCOC(=O)C(CC)C1=NC(C)(C)Cc2ccccc21.O=[N+]([O-])c1cc([N+](=O)[O-])c(O)c([N+](=O)[O-])c1` (stereo not drawn): inactive: -3.03%; for `CC1=C2N=C(C=C3N=C(C(C)=C4[N-][C@@](C)([C@@H]5N=C1[C@](C)(CCC(=O)NC[C@@H](C)OP(=O)([O-])O[C@H]1[C@@H](O)[C@@H](n6cnc7cc(C)c(C)cc76)O[C@@H]1CO)[C@H]5CC(N)=O)[C@@](C)(CC(N)=O)[C@@H]4CCC(N)=O)[C@@](C)(CC(N)=O)[C@@H]3CCC(N)=O)C(C)(C)[C@@H]2CCC(N)=O.[C-]#N.[Co+3]`: inactive: -0.47%. The same measure for `O=[N+]([O-])c1cc([N+](=O)[O-])c(Nc2nnnn2CCO)c([N+](=O)[O-])c1`: inactive: -2.61%; for `CP(=S)(Nn1cnnc1)Oc1ccccc1` (stereo not drawn): inactive: 3.88%; for `CP(=O)(Nc1ccccc1Br)Oc1ccccc1` (stereo not drawn): inactive: 4.75%. The same measure for `COc1ccccc1OP(C)(=O)Nc1ccccc1` (stereo not drawn): inactive: -0.97%; for `CCOC(=O)c1ccc(NP(C)(=O)Oc2ccc(OC)cc2)cc1` (stereo not drawn): inactive: -6.54%; for `O=[N+]([O-])c1cc([N+](=O)[O-])c(O)c([N+](=O)[O-])c1.c1ccc(Oc2ccncc2)cc1`: inactive: 3.64%. Consider `CCOP(C)(=S)SCC(=O)NC(C)C(=O)O` (stereo not drawn), for which the inhibition is inactive: -5.94%. The same measure for `CP(=O)(Nc1ccccn1)Oc1ccc(Cl)cc1` (stereo not drawn): inactive: 11.2%; for `CP(=O)(Oc1ccccc1)OC(c1ccccc1)C(F)(F)F` (stereo not drawn): inactive: 1.89%; for `Cc1cccc(C)c1OP(C)(=O)Nc1ccc(SC(F)(F)F)cc1` (stereo not drawn): inactive: 2.51%.

Regarding `CP(=O)(Nc1ccc(SC(F)(F)F)cc1)Oc1ccc(Cl)cc1` (stereo not drawn), the inhibition was inactive: -2.75%.

With `Cc1cc(C)cc(OP(C)(=O)Nc2ccc(SC(F)(F)F)cc2)c1` (stereo not drawn), the inhibition was inactive: 4.6%. For the compound `CP(=O)(NC(=O)Nc1ccccc1)Oc1ccccc1` (stereo not drawn), the inhibition is inactive: 3.4%. The same measure for `CCc1ccc(OP(C)(=O)N2CCN(c3ccc([N+](=O)[O-])cc3)CC2)cc1` (stereo not drawn): inactive: 3.95%. The same measure for `CCN(CC)CCCOC(=O)C(O)(c1ccccc1)c1ccccc1`: inactive: 2.66%; for `Cc1ccc(NP(C)(=O)Oc2ccccc2)c(C)c1` (stereo not drawn): inactive: -0.28%. The same measure for `COc1ccccc1OP(C)(=O)Nc1ccc(C)cc1` (stereo not drawn): inactive: 3.56%; for `CCOC(=O)c1ccc(NP(C)(=O)Oc2ccccc2)cc1` (stereo not drawn): inactive: -4%; for `Cc1cc(C)cc(OP(C)(N)=O)c1` (stereo not drawn): inactive: 3.58%. On to `COc1ccc(OP(C)(=O)Nc2cccc(F)c2)cc1` (stereo not drawn), for which the inhibition was inactive: 0.08%. The same measure for `COc1ccccc1OP(C)(=O)Nc1cc(Cl)ccc1C` (stereo not drawn): inactive: -3.11%; for `O=[N+]([O-])c1cc([N+](=O)[O-])c(Nc2cccnc2)c([N+](=O)[O-])c1`: inactive: 1.47%. The same measure for `O=[N+]([O-])c1ccc2c(c1)C=Nc1ccccc1O2`: inactive: 5.03%; for `Cc1cccc(C)c1OP(C)(N)=O` (stereo not drawn): inactive: -0.93%. The same measure for `CC(C)(C)c1ccc(OP(C)(=O)Nc2ccc(SC(F)(F)F)cc2)cc1` (stereo not drawn): inactive: -0.44%. For `Cc1nc2ccc3ccccc3c2o1.O=[N+]([O-])c1cc([N+](=O)[O-])c(O)c([N+](=O)[O-])c1`, the inhibition was inactive: 2.06%. The same measure for `CP(=O)(Nc1ccc(Cl)cc1Cl)Oc1ccccc1` (stereo not drawn): inactive: -0.16%. In the case of `CP(=O)(OCCOc1ccccc1)OCCOc1ccccc1`, the inhibition is inactive: 4.66%. The same measure for `Cc1cc(C)cc(OP(C)(=O)Nc2cccc(C(F)(F)F)c2)c1` (stereo not drawn): inactive: 1.98%; for `COc1ccccc1OP(C)(=O)Nc1ccc(C)c(C)c1` (stereo not drawn): inactive: -1.17%; for `COc1ccc(OP(C)(=O)Nc2ccccc2Br)cc1` (stereo not drawn): inactive: 2.53%. `Cc1c(NP(C)(=O)Oc2ccc(C(C)C)cc2)c(=O)n(-c2ccccc2)n1C` (stereo not drawn): the inhibition was inactive: -0.26%.

`O=[N+]([O-])c1cc([N+](=O)[O-])c(Nc2ccccn2)c([N+](=O)[O-])c1`: the inhibition is inactive: 2.69%. The same measure for `COc1ccccc1OP(C)(=O)Nc1ccc(C)cc1C` (stereo not drawn): inactive: -3.38%. The same measure for `CP(=O)(Nc1ccccn1)Oc1ccccc1` (stereo not drawn): inactive: 0.79%; for `CCc1ccc(OP(C)(=O)O)cc1`: inactive: 2.92%. The same measure for `COc1ccccc1OP(C)(=O)Nc1ccc(Br)cc1` (stereo not drawn): inactive: -3.32%; for `COc1ccc(OP(C)(=O)Nc2ccccn2)cc1` (stereo not drawn): inactive: 1.23%. For `CN(C)CCOC(=O)C(O)(c1ccccc1)C1CCCC1` (stereo not drawn), the inhibition is inactive: 1.02%.

Regarding `COc1ccccc1OP(C)(=O)Nc1ccccc1Br` (stereo not drawn), the inhibition was inactive: 3.42%. The same measure for `CC(C)(C)c1ccc(OP(C)(=O)O)cc1`: inactive: 5.93%; for `CP(=O)(Nc1ccc(Cl)cc1)Oc1ccc(F)cc1` (stereo not drawn): inactive: -2.49%.

Take `CN(C)C(=O)c1c([N+](=O)[O-])cc([N+](=O)[O-])cc1[N+](=O)[O-]`: the inhibition is inactive: 2.51%. The same measure for `COc1ccc(OP(C)(=O)Nc2ccc(Br)cc2)cc1` (stereo not drawn): inactive: 0.82%. As to `CCN(CC)CC(O)COC(=O)C(O)(c1ccccc1)C1CCCCC1` (stereo not drawn), the inhibition was inactive: -4.3%. The same measure for `O=C(OCCCN1CCCC1)C(O)(c1ccccc1)C1CCCCC1` (stereo not drawn): inactive: 0.44%. The same measure for `COc1ccccc1OP(C)(=O)Nc1c(C)n(C)n(-c2ccccc2)c1=O` (stereo not drawn): inactive: 2.5%; for `CCc1ccc(OP(C)(=O)Nc2cccnc2)cc1` (stereo not drawn): inactive: 3.22%; for `CP(=O)(Oc1ccccc1)N1CCOC1=O` (stereo not drawn): inactive: -8.52%. The same measure for `Nc1ccc2c(ccc3cccnc32)n1.O=[N+]([O-])c1cc([N+](=O)[O-])c(O)c([N+](=O)[O-])c1`: inactive: -1.76%; for `CCOC(=O)c1ccc(NP(C)(=O)Oc2ccc(Cl)cc2)cc1` (stereo not drawn): inactive: -2.26%.

Take `CP(=O)(OC12CC3CC(CC(C3)C1)C2)OC12CC3CC(CC(C3)C1)C2`: the inhibition was inactive: 0.37%. The same measure for `O=[N+]([O-])c1cc([N+](=O)[O-])c(NCC2CCS(=O)(=O)C2)c([N+](=O)[O-])c1` (stereo not drawn): inactive: 3.79%; for `COc1ccc(OP(C)(=O)Nc2cccc(Br)c2)cc1` (stereo not drawn): inactive: 2.46%; for `CN(C)CCOC(=O)C(O)(c1ccccc1)C1CCCCC1` (stereo not drawn): inactive: -0.97%. The same measure for `COc1ccc(NP(C)(=O)Oc2ccccc2OC)cc1` (stereo not drawn): inactive: -3.69%; for `CP(=O)(Nc1ccc2c(c1)OCCO2)Oc1ccccc1` (stereo not drawn): inactive: 2.67%; for `Cc1ccccc1NP(C)(=O)Nc1ccccc1C`: inactive: -3.18%.

In the case of `CP(=O)(Nc1ccc(SC(F)(F)F)cc1)Oc1ccc(F)cc1` (stereo not drawn), the inhibition is inactive: -5.5%. The same measure for `CCOP(C)(=S)SCC(=O)NC(C)(CC)C(=O)O` (stereo not drawn): inactive: 4.97%; for `O=C(OC1CN2CCC1CC2)c1ccc([N+](=O)[O-])cc1` (stereo not drawn): inactive: 1.52%; for `O=C(OCCN1CCN(CCOCc2ccccc2)CC1)C(O)(c1ccccc1)c1ccccc1`: inactive: -9.11%.

`COc1ccc2c(c1O)-c1c(O)c(OC)cc3c1[C@H](C2)[N+](C)(C)CC3.O=[N+]([O-])c1cc([N+](=O)[O-])c([O-])c([N+](=O)[O-])c1[O-]`: the inhibition was inactive: 2.69%. The same measure for `CP(=O)(Nc1ccccc1F)Oc1ccccc1` (stereo not drawn): inactive: -2.52%; for `CC(C)c1ccc(OP(C)(=O)Nc2ccc(SC(F)(F)F)cc2)cc1` (stereo not drawn): inactive: 0.75%; for `CCN(CC)CCCOC(=O)C(O)(c1ccccc1)C1CCCCC1` (stereo not drawn): inactive: 7.53%. The same measure for `CP(=O)(Nc1ccccc1)Oc1ccc(F)cc1` (stereo not drawn): inactive: 3.78%; for `CCCCCOc1ccc(NP(C)(=O)Oc2ccc(Cl)cc2Cl)cc1` (stereo not drawn): inactive: -3.12%. As to `O=[N+]([O-])c1cc([N+](=O)[O-])c(OC2CCCCC2O)c([N+](=O)[O-])c1` (stereo not drawn), the inhibition is inactive: -1.01%. For `CCOC(=O)c1ccc(NP(C)(=O)Oc2ccc(F)cc2)cc1` (stereo not drawn), the inhibition was inactive: 2.88%. The same measure for `COc1ccc(OP(C)(=O)Nc2ccc(SC(F)(F)F)cc2)cc1` (stereo not drawn): inactive: 2.34%.
